Measured values: article PMC4543658

Amino acid sequences for entries named in this document (tags omitted). A change or cut given only in a name is not applied to a line headed by its entry.
UniProt Q8T913: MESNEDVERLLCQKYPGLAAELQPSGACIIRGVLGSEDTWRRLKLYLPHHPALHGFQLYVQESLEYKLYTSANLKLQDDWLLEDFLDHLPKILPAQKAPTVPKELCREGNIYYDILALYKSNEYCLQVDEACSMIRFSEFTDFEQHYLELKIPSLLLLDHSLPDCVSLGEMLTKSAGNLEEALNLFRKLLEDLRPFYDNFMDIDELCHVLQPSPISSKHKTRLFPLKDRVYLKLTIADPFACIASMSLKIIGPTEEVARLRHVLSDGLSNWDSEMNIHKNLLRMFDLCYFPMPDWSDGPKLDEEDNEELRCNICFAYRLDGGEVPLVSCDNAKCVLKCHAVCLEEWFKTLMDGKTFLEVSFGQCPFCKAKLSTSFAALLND

Target: Drosophila FANCL ELF domain (1-105) (Drosophila melanogaster) (UniProt Q8T913)
Assay: ITC; ITC200; 2.5 mM ubiquitin in the syringe, 230 μM ELF domain in the cell; 50 mM Tris pH 8.0, 100 mM NaCl; 30 °C; cell concentrations adjusted to a 1:1 stoichiometric interaction

How did the Kd turn out when “human ubiquitin (no tag) (from UniProt P0CG48 1-76) (natural protein)” was run?
Its Kd is 42 µM.
